# Assay results as given in publication PMC9869975, “The β2-adrenergic receptor in the apical membrane of intestinal enterocytes senses sugars to stimulate glucose uptake from the gut” (Frontiers in Cell and Developmental Biology, 2023).
# Target: β2-adrenergic receptor (β2-AR) (Homo sapiens, UniProt P07550)
# Parameters: gene ADRB2
structure (smiles),measurement,value
CC(C)(C)NCC(O)COc1cccc2c1CC(O)C(O)C2 (stereo not shown) [nadolol],inhibition of epinephrine (20 nM) calcium response at 200 μM,the response was blocked by classical β-AR antagonists
